Measurements reported in patent US8283358B2, “N-sulfonamido polycyclic pyrazolyl compounds” (Elan Pharmaceuticals, Inc., priority 2008, dated 2012).

Target: gamma-secretase (partially purified extract of IMR-32 cell membranes; substrate MBP-C125 Swe fusion protein, cleavage at the Aβ40 site) (Homo sapiens, UniProt P49768)
Experiment: Gamma-secretase APP enzyme assay (Example A)
Assay type: biochemical
Settings: read-out: γAPP IC50; class symbols; assay described in Example A

| Compound | IC50 [µM] |
| --- | --- |
| O=S(=O)(c1ccc(C(F)(F)F)cc1)N1C2c3ccccc3C1C(F)c1[nH]ncc12 (single isomer, unassigned) | < 0.1 |
| O=S(=O)(c1ccc(C(F)(F)F)nc1)N1C2Cc3cccc(Br)c3C1c1cn[nH]c1C2 (single isomer, unassigned) | < 0.1 |
